{
  "source": "paper PMC6609550",
  "about": "“Blockade of the forward Na^+/Ca^2+ exchanger suppresses the growth of glioblastoma cells through Ca^2+‐mediated cell death” (British Journal of Pharmacology, 2019)",
  "key": {"[1]": {"test_system": "U87 cells", "experiment": "Annexin V–FITC/PI apoptosis assay of U87 cells", "format": "cell-based, Human", "description": "(§1) U87 cells were seeded in six‐well plates (Corning, Corning, NY, USA) with 1 × 10^6 cells per well and treated with NCX blockers, BAPTA‐AM, or MAPK inhibitors. Drug treatment was performed by the person who is blinded to the experimental groups. After treatment, cells were harvested in 15‐ml tubes and washed with cold sterile PBS. After being centrifuged, cells were fixed with 70% ethanol […] at 4°C for at least 1 hr. For propidium iodide (PI) staining, cells were washed one time with PBS and then were treated with ribonuclease A (RNase; 100 μg·ml^−1) for 30 min. PI (10 μg·ml^−1) was added, and stained cells were kept in the dark at 4°C until analysis. The number of cells analysed for each sample was 10,000 events. FACS analysis was performed using the Coulter CytoFlexS flow cytometer (Beckman Coulter, CA, USA), and the percentage of cells in the G0/G1, S, and G2/M phases was determined using cell cycle analysis software, ModFit LT 5.0 (Verity Software House, Topsham, ME, USA). […] Apoptosis was analysed by Coulter CytoFlexS flow cytometer (Beckman Coulter) for at least 10,000 events, and data were analysed with the software, CyExpert 2.0 (Beckman Coulter)."}, "[2]": {"test_system": "U87 cells", "experiment": "Cell cycle assay (PI staining, flow cytometry) of U87 cells", "format": "cell-based, Human", "description": "as §1"}},
  "data": [
    {"compound": "O=[N+]([O-])c1ccc(-c2nc(-c3ccncc3)c(-c3ccc(F)cc3)[nH]2)cc1", "note": "[PD169316]", "values": [
      {"measurement": "Effect on apoptosis (Annexin V+ cells), compound alone", "setting": "[1]", "value": "did not activate apoptosis"},
      {"measurement": "Effect on bepridil-induced apoptosis", "setting": "[1]", "value": "not"},
      {"measurement": "Effect on bepridil-induced G0/G1 cell cycle arrest", "setting": "[2]", "value": "prevented"}
    ]}
  ]
}
